Measurements from patent publication US12337063B2, “Formulation for atropine sulfate rapidly-disintegrating sublingual tablets” (dated 2025).

Assay: pH measurement of alkalizing excipients
[1] = 0.50% excipient dissolved in 2 mL water, n=5
[2] = 1% excipient dissolved in 2 mL water, n=5

Substance | pH Reading [1] | pH Reading (0.50% excipient dissolved in 2 mL water, n=5, listed as Na Bicarb) | pH Reading [2] | pH Reading (1% excipient dissolved in 2 mL water, n=5, listed as Na Bicarb) | pH Reading (1% with AS RDST (incorporated into RDST Formulation 2)) | pH Reading (1% with AS RDST (incorporated into RDST Formulation 2), listed as Na Bicarb) | pH Reading (0.50% excipient dissolved in 2 mL water, n=5, listed as Ca Carb) | pH Reading (1% excipient dissolved in 2 mL water, n=5, listed as Ca Carb) | pH Reading (0.50% excipient dissolved in 2 mL water, n=5, listed as Na Cit) | pH Reading (1% excipient dissolved in 2 mL water, n=5, listed as Na Cit)
sodium bicarbonate | 7.2 ± 0.2 | 7.2±0.2 | 8.1 ± 0.3 ^§ | 8.1±0.3 | 7.9 ± 0.1 | 7.9±0.1 | – | – | – | –
calcium carbonate | 6.6 ± 0.1 | – | 7.6 ± 0.1 | – | – | – | 6.6±0.1 | 7.6±0.1 | – | –
sodium citrate | 6.2 ± 0.3 | – | 7.5 ± 0.1 | – | – | – | – | – | 6.2±0.3 | 7.5±0.1
